# AlphaSeq binding of Ab-95 light chain variants to a spike HR2 peptide

The measurements come from Engelhart et al. 2022 (doi:10.1038/s41597-022-01779-4) through the FLAb antibody collection.

All variants were tested on one target, the spike HR2 peptide PDVDLGDISGINAS (SARS-CoV-2).

Ab-95 is the parent antibody, in scFv form: VH, then a 15-residue (Gly4Ser)3 linker, then VL. The heavy chain is unchanged in all variants.
VH: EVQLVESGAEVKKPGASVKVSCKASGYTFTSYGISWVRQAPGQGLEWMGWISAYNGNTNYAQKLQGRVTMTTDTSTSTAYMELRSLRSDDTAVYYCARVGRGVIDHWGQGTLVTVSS
VL: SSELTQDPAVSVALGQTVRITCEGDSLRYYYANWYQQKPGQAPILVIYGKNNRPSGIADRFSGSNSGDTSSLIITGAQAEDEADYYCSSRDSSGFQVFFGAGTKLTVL

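The starting antibody came from a phage panning campaign against this peptide. AAYL52 was designed without a model: most single CDR substitutions and a random sample of double and triple ones. AlphaSeq pools MATa yeast showing the antibodies with MATalpha yeast showing the peptide. After mating in shaken culture at 30 °C for 16 h, diploids were selected and their barcode pairs sequenced. Each replicate has its own calibration line, from reference interactions of the BCL2 family. Mating was done three times.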

Positions count from residue 1 of the parent VL; Y29E puts E in place of Y. Values are apparent Kd, the geometric mean of the replicates that gave a signal; lower means stronger binding. An entry "nd" has no value in the source: the pair was not observed among the diploids in any replicate. This suggests poor binding but is not conclusive. In this assay the parent's reference entry averaged 200 nM; its copy inside this library read 180 nM.

Read-out 10 µM (3 of 3 replicates; controls 3 of 9), from Y29E S55W G94Q.
Read-out 4.5 µM (2 of 3 replicates; controls 3 of 9), from S55G S88I S93D.
Read-out 100 µM (2 of 3 replicates; controls 3 of 9), from A32H G49Q S92N.
Read-out 57 nM (3 of 3 replicates; controls 2 of 9), from Y29T S55I G94N.
Read-out nd (0 of 3 replicates; controls 1 of 9), from E23R N51C R90I.
Read-out 14 µM (3 of 3 replicates; controls 4 of 9), from Y31I D91S G94I.
Read-out 70 nM (3 of 3 replicates; controls 8 of 9), from Y31H R53L.
Read-out nd (0 of 3 replicates; controls 0 of 9), from G49L N52C F95D.
Read-out 28 nM (3 of 3 replicates; controls 1 of 9), from E23S N52Q Q96N.
Read-out nd (0 of 3 replicates; controls 3 of 9), from A32H P54C R90D.
Read-out 480 nM (3 of 3 replicates; controls 2 of 9), from S26D F95K V97S.
Read-out 8.1 µM (1 of 3 replicates; controls 0 of 9), from P54A S89Q D91W.
Read-out 3.8 µM (1 of 3 replicates; controls 0 of 9), from G24V S26V Q96E.
Read-out 19 nM (3 of 3 replicates; controls 6 of 9), from Y31N V97W.
Read-out 3.4 µM (1 of 3 replicates; controls 2 of 9), from N33Q N51M F98T.
Read-out 4.1 µM (1 of 3 replicates; controls 2 of 9), from Y29S R53W S92Y.
Read-out 350 nM (3 of 3 replicates; controls 2 of 9), from D25V R28T G94Y.
Read-out nd (0 of 3 replicates; controls 0 of 9), from P54E G94K V97T.
Read-out 3.6 µM (3 of 3 replicates; controls 4 of 9), from Y30I G94E V97P.
Read-out 7.7 µM (2 of 3 replicates; controls 2 of 9), from G24H Y29A R53D.
Read-out 3.3 µM (3 of 3 replicates; controls 2 of 9), from S92N G94D F95V.
Read-out 7.5 µM (2 of 3 replicates; controls 2 of 9), from A32M S55R D91Y.
Read-out 5.7 µM (3 of 3 replicates; controls 2 of 9), from L27V S55Y S92G.
Read-out 23 µM (2 of 3 replicates; controls 4 of 9), from K50T R53M F95S.
Read-out nd (0 of 3 replicates; controls 1 of 9), from G24L Y29I N52M.
Read-out 3.3 µM (1 of 3 replicates; controls 4 of 9), from N33K K50L D91W.
Read-out 4.4 µM (3 of 3 replicates; controls 5 of 9), from Y30R G49W Q96Y.
Read-out 3.0 µM (2 of 3 replicates; controls 2 of 9), from R53S S55D S89H.
Read-out 80 µM (1 of 3 replicates; controls 1 of 9), from R53P G94H F98K.
Read-out nd (0 of 3 replicates; controls 1 of 9), from S26T S93E F95E.
Read-out nd (0 of 3 replicates; controls 0 of 9), from G24I N52K D91G.
Read-out 230 nM (2 of 3 replicates; controls 1 of 9), from K50C Q96N V97P.
Read-out 1.6 µM (3 of 3 replicates; controls 3 of 9), from E23M S55R V97F.
Read-out 200 nM (2 of 3 replicates; controls 0 of 9), from Y30Q S92L Q96Y.
Read-out 140 nM (3 of 3 replicates; controls 5 of 9), from S89N F98W.
Read-out 3.0 µM (2 of 3 replicates; controls 2 of 9), from A32I P54N F98Q.
Read-out 45 µM (2 of 3 replicates; controls 5 of 9), from G24W N51V V97N.
Read-out 1.9 µM (3 of 3 replicates; controls 4 of 9), from S26Q Y29N A32S.
Read-out 1.1 µM (2 of 3 replicates; controls 2 of 9), from S26D G94Y V97Q.
Read-out 250 nM (3 of 3 replicates; controls 5 of 9), from D91R S93T Q96A.

Picked from the list: the 6 lowest averages where every replicate gave a value.

Y31N V97W: 19 nM (3 of 3 replicates; controls 6 of 9).
E23S N52Q Q96N: 28 nM (3 of 3 replicates; controls 1 of 9).
Y29T S55I G94N: 57 nM (3 of 3 replicates; controls 2 of 9).
Y31H R53L: 70 nM (3 of 3 replicates; controls 8 of 9).
S89N F98W: 140 nM (3 of 3 replicates; controls 5 of 9).
D91R S93T Q96A: 250 nM (3 of 3 replicates; controls 5 of 9).

Nonspecific signal, from three strains lacking the peptide, appeared in 28% of pairings of library AAYL52, centred on 8.2 µM (5% of these signals below 800 nM); values are not corrected for it. Also given: how often the same scFv was detected with the empty control strains.